Test results taken from PubChem BioAssay (NCATS).
The entries are a selection whose mix differs from that of the whole data set. Results filed as inconclusive are left out. The source made the active and inactive calls. Calls come from the whole dose curve; as a rule, active = well fitted curve in the direction sought with a large enough effect; inconclusive = small, poorly fitted or top-dose-only effect, or another doubt; inactive = no such curve, though single readings can be large; an effect the other way counts as inactive or inconclusive.

How the values were obtained:
[1] = qHTS of pediatric cancer cell lines to identify multiple opportunities for drug repurposing: Primary screen for U-2 OS cells (AID 1347096); details: U-2 OS viability, CellTiter-Glo luminescence, 48 h; at 46 µM (top of the series);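 note: plate controls were DMSO wells for no effect and bortezomib positive control wells for full effect; nearly all actives have a fitted effect of over 50% in size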
Summary of the method: (§1)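 Viability after 48 h compound treatment at 37C, 500-1,000 cells/well, read as ATP luminescence with CellTiter-Glo. Primary screens used 11-point (MIPE, 0.78 nM-46 µM) or 8-point (NPC, 0.59 nM-46 µM) final concentrations; follow-up screens used 11-point dilutions.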

[2] = qHTS of pediatric cancer cell lines to identify multiple opportunities for drug repurposing: Primary screen for Saos-2 cells (AID 1347097); details: Saos-2 viability, CellTiter-Glo ATP luminescence, 48 h; at 46 µM (top of the series); note: % is set by controls: 0 for no effect and ±100 for the full control effect; nearly all actives have a fitted effect of over 40% in size
Source text: Drug repurposing or repositioning has been offered as a strategy for drug development in oncology programs. This approach has special potential for childhood cancers and other rare or orphan diseases, where the expected return on new drug development has been a disincentive to pharmaceuticals. […] In this project we exploit the poly-pharmacology of drugs to discover new indications via phenotypic screening of a panel of 19 well-characterized cell lines derived from solid tumors seen in children and adolescents. The goal is to identify approved drugs with previously unrecognized anticancer properties that has the potential to reveal new mechanisms and biological processes involved in carcinogenesis or drug resistance. We employed a titration-based paradigm (quantitative high-throughput screening or qHTS), where all compounds were tested at multiple concentrations for their effect on cell viability. […] We screened the NIH Chemical Genomics Center (NCGC) Pharmaceutical Collection (NPC) and Mechanism Interrogation Plate (MIPE) small molecule collections of approved and investigational compounds against these cell lines; and measured metabolically active cells after 48 hours of compound treatment as a proxy for cell viability. […] Assay Submitter: Nathalia J. Martinez, National Center for Advancing Translational Sciences, National Institutes of Health, Rockville, MD, USA; email: natalia.martinez@nih.gov Shen, M et al. Quantitative high-throughput phenotypic screening of pediatric cancer cell lines identifies multiple opportunities for drug repurposing. […]
The cells were obtained from University of North Carolina (UNC), Pediatric Preclinical Testing Program (PPT), and Coriell Institute (CI). qHTS cell viability assay: Cells were assayed in growth media at a density of 500-1,000 cells/well. […] After a 15 min incubation at room temperature, samples were analyzed for luminescence intensity using a ViewLux High-throughput CCD imager equipped with clear filters.

[3] = qHTS of pediatric cancer cell lines to identify multiple opportunities for drug repurposing: Primary screen for SK-N-SH cells (AID 1347098); details: SK-N-SH viability, CellTiter-Glo luminescence, 48 h; at 57 µM (top of the series);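 note: DMSO served as neutral control and bortezomib at 2.3 µM as positive control; % is set by controls: 0 for no effect and ±100 for the full control effect; nearly all actives have a fitted effect of over 65% in size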
Summary of the method: (§2)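 Cells (500-1,000/well) rested 5 h, then received compounds for 48 h; metabolically active cells were measured by CellTiter-Glo luminescence. Final concentrations spanned up to 46 µM (MIPE, 11-point) or 0.59 nM-46 µM (NPC, 8-point) in primary screens, 11-point in follow-ups.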

[4] = qHTS of pediatric cancer cell lines to identify multiple opportunities for drug repurposing: Primary screen for NB1643 cells (AID 1347099); details: NB1643 neuroblastoma viability, CellTiter-Glo luminescence, 48 h; at 46 µM (top of the series);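 note: plate controls were DMSO neutral control for no effect and bortezomib positive control for full effect; nearly all actives have a fitted effect of over 50% in size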
[5] = qHTS of pediatric cancer cell lines to identify multiple opportunities for drug repurposing: Primary screen for LAN-5 cells (AID 1347100); details: LAN-5 neuroblastoma viability, CellTiter-Glo luminescence, 48 h; at 46 µM (top of the series);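 note: plate controls were DMSO neutral control for no effect and bortezomib positive control for full effect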
Summary of the method: as §1

[6] = qHTS of pediatric cancer cell lines to identify multiple opportunities for drug repurposing: Primary screen for BT-12 cells (AID 1347101); details: BT-12 viability, CellTiter-Glo luminescence, 48 h; at 57.3 µM (top of the series);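 note: plate controls were DMSO for no effect and bortezomib positive control for full effect; nearly all actives have a fitted effect of over 25% in size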
Summary of the method: as §2

[7] = qHTS of pediatric cancer cell lines to identify multiple opportunities for drug repurposing: Primary screen for Rh18 cells (AID 1347102); details: Rh18 rhabdomyosarcoma viability, CellTiter-Glo luminescence, 48 h; at 46 µM (top of the series); note: % is set by controls: 0 for no effect and ±100 for the full control effect; nearly all actives have a fitted effect of over 65% in size
Source text: Drug repurposing or repositioning has been offered as a strategy for drug development in oncology programs. This approach has special potential for childhood cancers and other rare or orphan diseases, where the expected return on new drug development has been a disincentive to pharmaceuticals.
In this project we exploit the poly-pharmacology of drugs to discover new indications via phenotypic screening of a panel of 19 well-characterized cell lines derived from solid tumors seen in children and adolescents. The goal is to identify approved drugs with previously unrecognized anticancer properties that has the potential to reveal new mechanisms and biological processes involved in carcinogenesis or drug resistance. We employed a titration-based paradigm (quantitative high-throughput screening or qHTS), where all compounds were tested at multiple concentrations for their effect on cell viability. Concentration-response curves (CRCs) were derived directly from the primary screen, and both potency and efficacy values were used to identify compounds with robust bioactivity profiles. We screened the NIH Chemical Genomics Center (NCGC) Pharmaceutical Collection (NPC) and Mechanism Interrogation Plate (MIPE) small molecule collections of approved and investigational compounds against these cell lines; and measured metabolically active cells after 48 hours of compound treatment as a proxy for cell viability.
Assay Submitter: Nathalia J. Martinez, National Center for Advancing Translational Sciences, National Institutes of Health, Rockville, MD, USA; email: natalia.martinez@nih.gov
[1] Shen, M et al. Quantitative high-throughput phenotypic screening of pediatric cancer cell lines identifies multiple opportunities for drug repurposing. Oncotarget 2017 Dec 19;9(4):4758-4772. PMID 29435139. […]
Cells were assayed in growth media at a density of 500-1,000 cells/well. […] After a 15 min incubation at room temperature, samples were analyzed for luminescence intensity using a ViewLux High-throughput CCD imager equipped with clear filters.

[8] = qHTS of pediatric cancer cell lines to identify multiple opportunities for drug repurposing: Primary screen for OHS-50 cells (AID 1347103); details: OHS-50 osteosarcoma viability, CellTiter-Glo luminescence, 48 h; at 57.3 µM (top of the series);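 note: plate controls were DMSO neutral control for no effect and bortezomib positive control for full effect; nearly all actives have a fitted effect of over 40% in size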
Summary of the method: as §2

[9] = qHTS of pediatric cancer cell lines to identify multiple opportunities for drug repurposing: Primary screen for RD cells (AID 1347104); details: RD rhabdomyosarcoma viability, CellTiter-Glo luminescence, 48 h; at 46 µM (top of the series);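 note: plate controls were DMSO for no effect and bortezomib for full effect; nearly all actives have a fitted effect of over 55% in size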
Summary of the method: (§3)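 Following a 5-hour attachment period, cells at 500-1,000/well received compounds and were cultured for 48 hours. CellTiter-Glo was added and luminescence read to estimate viable, metabolically active cells.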

[10] = qHTS of pediatric cancer cell lines to identify multiple opportunities for drug repurposing: Primary screen for MG 63 (6-TG R) cells (AID 1347105); details: MG 63 (6-TG R) viability, CellTiter-Glo, 48 h; at 46 µM (top of the series); note: % is set by controls: 0 for no effect and ±100 for the full control effect; nearly all actives have a fitted effect of over 50% in size
Summary of the method: as §3

Measured: activity change, negative = cytotoxic

CCC(=O)N(c1ccccc1)C1CCNCC1
inactive: [1] 6.36% | [2] -7.21% | [3] 14.2% | [4] -2.38% | [5] -1.49% | [6] 14.7% | [7] -0.809% | [8] 4.49% | [9] 9.26% | [10] -5.31%

CCOC(=O)C(=O)CBr
inactive: [1] 1.14% | [2] -18.3% | [3] 5.95% | [4] -1.09% | [5] 4.28% | [6] 1.75% | [7] 4.04% | [8] 2.67% | [9] -9.94% | [10] -4.95%

CCOC(=O)N1CCC(=O)CC1
inactive: [1] 10.3% | [2] -6.52% | [3] -7.1% | [4] 24.8% | [5] 9.75% | [6] 11.7% | [7] 38.4% | [8] 12.6% | [9] 11.2% | [10] -9.4%
